Molecular target: Mu-type opioid receptor (Bos taurus, UniProt P79350)

Chains of the proteins cited; added tags and fusions are not shown.
UniProt P79350, whole entry: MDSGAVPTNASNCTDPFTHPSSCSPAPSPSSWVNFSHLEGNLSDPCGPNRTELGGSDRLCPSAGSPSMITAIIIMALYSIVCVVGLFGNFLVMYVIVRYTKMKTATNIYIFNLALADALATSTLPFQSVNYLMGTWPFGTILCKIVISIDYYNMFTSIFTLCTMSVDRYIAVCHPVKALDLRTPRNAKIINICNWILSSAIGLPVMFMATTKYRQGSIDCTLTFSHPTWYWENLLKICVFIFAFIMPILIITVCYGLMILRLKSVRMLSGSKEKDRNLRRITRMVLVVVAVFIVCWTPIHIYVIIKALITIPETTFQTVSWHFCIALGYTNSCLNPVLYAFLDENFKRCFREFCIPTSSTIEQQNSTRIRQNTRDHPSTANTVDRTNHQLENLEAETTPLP

## CN1CCC23c4c5ccc(O)c4OC2C(O)CCC3C1C5 (stereo unspecified) [CAS_509-60-4]
  Ki: 0.23 nM
